# Experiments:
# [1] = Nuclease resistance (stability) in DMEM with fetal bovine serum; assay type: in vitro ADME
# miR-17 = assay: RNA cleavage assay, miR-17; assay type: biochemical; details: miR-17 1 µM, conjugate 30 µM, 37 °C
# miR-21 [2] = assay: RNA cleavage assay, miR-21; assay type: biochemical; details: miR-21 1 µM, 37 °C
# miR-21^hybrid = assay: RNA cleavage assay, miR-21^hybrid; assay type: biochemical; details: RNA 1 µM, conjugate 20 µM, 37 °C, 24 h time point
# miR-21 [3] = assay: Gel-retardation assay, hybridization with miR-21; assay type: binding; details: at equimolar concentration and higher; miR-21 1 µM, 0.5-10 µM oligonucleotide or conjugate, 37 °C, 1 h, 50 mM Tris-HCl pH 7.0, 0.2 M KCl, 1 mM EDTA, 15% native PAAG
smiles,measurement,setting,value
Cc1cn([C@H]2C[C@H](OP(=O)(O)OC[C@H]3O[C@@H](n4ccc(N)nc4=O)C[C@@H]3OP(=O)(O)OC[C@H]3O[C@@H](n4cnc5c(N)ncnc54)C[C@@H]3OP(=O)(O)OC[C@H]3O[C@@H](n4cnc5c(N)ncnc54)C[C@@H]3OP(=O)(O)OCCOCCOCCOCCOP(=O)(O)OCCOCCOCCOCCOP(=O)(O)OC[C@H]3O[C@@H](n4cnc5c(N)ncnc54)C[C@@H]3OP(=O)(O)OC[C@H]3O[C@@H](n4cnc5c(=O)[nH]c(N)nc54)C[C@@H]3OP(=O)(O)OC[C@H]3O[C@@H](n4cc(C)c(=O)[nH]c4=O)C[C@@H]3OP(=O)(O)OC[C@H]3O[C@@H](n4ccc(N)nc4=O)C[C@@H]3OP(=O)(O)OC[C@H]3O[C@@H](n4cc(C)c(=O)[nH]c4=O)C[C@@H]3OP(=O)(O)OC[C@H]3O[C@@H](n4cnc5c(=O)[nH]c(N)nc54)C[C@@H]3OP(=O)(O)OC[C@H]3O[C@@H](n4cnc5c(N)ncnc54)C[C@@H]3OP(=O)(O)OC[C@H]3O[C@@H](n4cc(C)c(=O)[nH]c4=O)C[C@@H]3OP(=O)(O)OC[C@H]3O[C@@H](n4cnc5c(N)ncnc54)C[C@@H]3OP(=O)(O)OC[C@H]3O[C@@H](n4cnc5c(N)ncnc54)C[C@@H]3OP(=O)(O)OC[C@H]3O[C@@H](n4cnc5c(=O)[nH]c(N)nc54)C[C@@H]3OP(=O)(O)OC[C@H]3O[C@@H](n4ccc(N)nc4=O)C[C@@H]3OP(=O)(O)OC[C@H]3O[C@@H](n4cc(C)c(=O)[nH]c4=O)C[C@@H]3OP(=O)(O)OC[C@H]3O[C@@H](n4cnc5c(N)ncnc54)C[C@@H]3OP(=O)(O)OC[C@H]3O[C@@H](n4ccc(N)nc4=O)C[C@@H]3OP(=O)(O)OC[C@H]3O[C@@H](n4cnc5c(N)ncnc54)C[C@@H]3OP(=O)(O)OC[C@H]3O[C@@H](n4cnc5c(N)ncnc54)C[C@@H]3OP(=O)(O)OC[C@H]3O[C@@H](n4cnc5c(=O)[nH]c(N)nc54)C[C@@H]3OP(=O)(O)OC[C@H]3O[C@@H](n4cc(C)c(=O)[nH]c4=O)C[C@@H]3OP(=O)(O)OC[C@H]3O[C@@H](n4ccc(N)nc4=O)C[C@@H]3OP(=O)(O)OC[C@H]3O[C@@H](n4cnc5c(N)ncnc54)C[C@@H]3OP(=O)(O)OC[C@H]3O[C@@H](n4cnc5c(=O)[nH]c(N)nc54)C[C@@H]3OP(=O)(O)OC[C@H]3O[C@@H](n4ccc(N)nc4=O)C[C@@H]3OP(=O)(O)OC[C@H]3O[C@@H](n4cnc5c(=O)[nH]c(N)nc54)C[C@@H]3OP(=O)(O)OC[C@H]3O[C@@H](n4cnc5c(N)ncnc54)C[C@@H]3OP(=O)(O)OC[C@H]3O[C@@H](n4cnc5c(N)ncnc54)C[C@@H]3OP(=O)(O)OC[C@H]3O[C@@H](n4cnc5c(N)ncnc54)C[C@@H]3OP(=O)(O)OC[C@H]3O[C@@H](n4cnc5c(=O)[nH]c(N)nc54)C[C@@H]3OP(=O)(O)OC[C@H]3O[C@@H](n4ccc(N)nc4=O)C[C@@H]3OP(=O)(O)OC[C@H]3O[C@@H](n4cc(C)c(=O)[nH]c4=O)C[C@@H]3OP(=O)(O)OC[C@H]3O[C@@H](n4cnc5c(=O)[nH]c(N)nc54)C[C@@H]3OP(=O)(O)OC[C@H]3O[C@@H](n4cnc5c(N)ncnc54)C[C@@H]3OP(=O)(O)OC[C@H]3O[C@@H](n4ccc(N)nc4=O)C[C@@H]3OP(=O)(O)OC[C@H]3O[C@@H](n4cc(C)c(=O)[nH]c4=O)C[C@@H]3OP(=O)(O)OC[C@H]3O[C@@H](n4cc(C)c(=O)[nH]c4=O)C[C@@H]3OP(=O)(O)OC[C@H]3O[C@@H](n4cnc5c(=O)[nH]c(N)nc54)C[C@@H]3O)[C@@H](COP(=O)(O)N[C@@H](CC(C)C)C(=O)N[C@@H](CCCNC(=N)N)C(=O)N[C@@H](CC(C)C)C(=O)N[C@@H](CCCNC(=N)N)C(=O)N[C@@H](CC(C)C)C(=O)N[C@@H](CCCNC(=N)N)C(=O)N[C@@H](CC(C)C)C(=O)N[C@@H](CCCNC(=N)N)C(=O)NCC(N)=O)O2)c(=O)[nH]c1=O,hydrolysis in serum-containing medium at 48 h,"[1]; DMEM with 10% FBS, 37 °C, 0.1 µg/µl, 48 h, gel analysis",20%
same,"time up to which stability was kept, 50% FBS","[1]; DMEM with 50% FBS, 12% polyacrylamide/8 M urea gel autoradiograph",up to 24 h
same,"time up to which stability was kept, 90% FBS","[1]; DMEM with 90% FBS, 12% polyacrylamide/8 M urea gel autoradiograph",up to 8 h
same,non-complementary miR-17 cleaved during 24 h,miR-17,90%
same,cleavage of miR-21 at a 20-fold excess of conjugate,"miR-21 [2]; 20-fold excess of conjugate, 72 h, primary data not shown",≤ 1%
same,cleavage efficiency of miR-21 at a 100-fold excess of conjugate,"miR-21 [2]; conjugate 100 µM, 0-144 h",very slightly
same,total extent of miR-21^hybrid cleavage at a 20-fold excess of conjugates,miR-21^hybrid,12%
same,hybridization (binding) efficiency with miR-21,miR-21 [3],77%

# Reference: publication PMC6177439, “Peptide-oligonucleotide conjugates exhibiting pyrimidine-X cleavage specificity efficiently silence miRNA target acting synergistically with RNase H” (Scientific Reports, 2018)
